MC4R antagonist: antagonists of human melanocortin 4 receptor (MC4R) | inhibition, % at 6.5 µM | MC4R-expressing cells, MTII-stimulated cAMP, LANCE TR-FRET | P32245 | 360,000 tested, 0.48% active;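 active = inhibition above its plate's cutoff, the mean of tested wells on that plate plus 3 SD, cut at about 29% in these data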
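Material – human MC4R-expressing U2OS cells · Repeats – no replicates · Detection – TR-FRET with Eu-cAMP and labeled anti-cAMP, 671 nm · Times – compound 30 min, challenge 1 h, detection 1 h · Compound – single nominal compound dose of 6.5 µM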
CendR NRP1 mod: modulators of CendR peptide binding to human neuropilin-1. inhibition, % at 25 µM. 360,000 tested, 0.85% active. FAM-RPARPAR peptide binding to NRP-1, fluorescence polarization. O14786;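 active = inhibition or corrected inhibition above about 18%, plus a signal ratio from 0.5 to 1.5, limit read from the data, passing the limit was not always enough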
UUG fidelity: modulators of start codon recognition fidelity in yeast; AID 602363; activity score, % at 18.7 µM; S. cerevisiae UUG-firefly luciferase reporter, luminescence/redox ratio; 0.13% of 350,000 active;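 active = replicate mean at a twofold rise or more, about +100% in these data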;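 note: firefly luciferase made from a UUG start codon reports start codon fidelity; reporter light over untreated wells divided by growth signal over untreated wells; some hits fall short of that in this replicate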
ARFGAP1 inh: inhibitors of rat ARFGAP1; Arfgap1-stimulated ARF1 GTP hydrolysis, GDP FP detection; inhibition, % at 16.5 µM; 360,000 tested, 0.26% active;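 active = inhibition above a per-plate limit, mean inhibition of low control wells plus 3 SD, cut at about 25% in these data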
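Material: rat Arfgap1 GAP domain (His6, aa 1-136), purified enzyme. Also added: human ARF1(Δ1-17)-GTP substrate. Compound dosing: 16.5 µM single point, 1.26% DMSO. Timing: enzyme reaction 120 min at 25 °C after 20 min preincubation. Signal: GDP detection by fluorescence polarization. Read-out basis: percent inhibition of GAP-stimulated GDP formation, scaled between DMSO and no-Arfgap1 medians.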
ASAP1 GAP inh: blocks human ASAP1-stimulated Arf1 GTP hydrolysis | Q9ULH1 | GDP FP detection | inhibition, % at 16.5 µM | 360,000 tested, 0.19% active | AID 624377; in the data active = inhibition above about 25%
MC4R barr agon: human MC4R agonism via beta-arrestin. P32245. U2OS MC4R beta-arrestin complementation, luminescence; percent of melanotan II response, DMSO zero. activation, % at 8.9 µM. 360,000 tested, 0.98% active. AID 540308;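 active = activation above a per-plate cutoff, the mean activation of sample wells on that plate plus 3 SD, cut at about 8% in these data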
ASAP1 inh confirm: confirmation of human ASAP1 inhibitors | shares compounds with ASAP1 GAP inh | ASAP1-stimulated Arf1 GTPase, GDP fluorescence polarization | inhibition, % at 16.5 µM | 620 tested, 37% active;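 active = mean inhibition over triplicates exceeds the hit threshold derived for the earlier primary screening run, cut at about 25% in these data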
ARFGAP1 inh conf: confirmation of rat ARFGAP1 inhibitors. shares compounds with ARFGAP1 inh. ARFGAP1-stimulated ARF1 GTP hydrolysis, GDP tracer FP. inhibition, % at 16.5 µM. 890 tested, 30% active. AID 651608;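 active = average inhibition over triplicates above the hit cutoff set in the earlier primary screen, cut at about 25% in these data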
Numbers stand for hits. In the library only some 2.3% were active in any assay of this set; here they are far more common.

CC1(c2ccccc2)NC(=O)N(CCN2C(=O)c3ccccc3C2=O)C1=O (stereo unspecified) was read as MC4R antagonist inactive, CendR NRP1 mod inactive, UUG fidelity inactive, ARFGAP1 inh inactive, ASAP1 GAP inh 25, MC4R barr agon inactive and ASAP1 inh confirm inactive.
Screening CCCC1(c2ccccc2)NC(=O)N(CCN2C(=O)c3ccccc3C2=O)C1=O (stereo unspecified) returned MC4R antagonist inactive, CendR NRP1 mod inactive, UUG fidelity inactive and MC4R barr agon inactive.
Screening COc1ccc(C(=O)Nc2nnc(SCC(=O)Nc3ccc(NC(C)=O)cc3)s2)c(OC)c1 returned MC4R antagonist inactive, CendR NRP1 mod inactive, UUG fidelity inactive, ARFGAP1 inh 52, ASAP1 GAP inh 39, MC4R barr agon inactive, ASAP1 inh confirm 82 and ARFGAP1 inh conf 122.
COc1ccc(C(=O)Nc2nnc(SCC(=O)NC3CCCC3)s2)c(OC)c1 was read as MC4R antagonist inactive, CendR NRP1 mod inactive, UUG fidelity inactive, ARFGAP1 inh inactive, ASAP1 GAP inh inactive and MC4R barr agon inactive.
For O=C(Nc1ccc2oc(-c3ccccc3)nc2c1)c1ccc2c(c1)OCCO2 the results were MC4R antagonist inactive, CendR NRP1 mod inactive, UUG fidelity inactive, ARFGAP1 inh inactive, ASAP1 GAP inh inactive and MC4R barr agon inactive.
Screening O=C(Nc1ccc2oc(-c3cccnc3)nc2c1)c1ccc2c(c1)OCCO2 returned MC4R antagonist inactive, CendR NRP1 mod inactive, ARFGAP1 inh 42, ASAP1 GAP inh 27, MC4R barr agon inactive, ASAP1 inh confirm 38 and ARFGAP1 inh conf 114.
COc1ccc(NC(=O)Nc2ccc3c(c2)C(=O)N([C@H](C)CO)C[C@H](C)[C@H](CN(C)C)OCCCC[C@H](C)O3)cc1 was read as UUG fidelity inactive.
Screening COc1ccccc1NC(=O)N[C@@H]1CC[C@H](CCNS(=O)(=O)c2ccc(F)cc2)O[C@@H]1CO returned UUG fidelity inactive.
C[C@@H]1CN([C@@H](C)CO)C(=O)c2cc(C#CC3CCCC3)cnc2O[C@@H]1CN(C)Cc1ccncc1 was read as UUG fidelity inactive.
`CCN1CCN(Cc2ccc(NC(=O)c3ccc(C)c(NC(=O)c4ccc5n[nH]nc5c4)c3)cc2C(F)(F)F)CC1` gave MC4R antagonist inactive, CendR NRP1 mod inactive, UUG fidelity inactive, ARFGAP1 inh inactive, ASAP1 GAP inh inactive and MC4R barr agon inactive.
`CCN1CCN(Cc2ccc(NC(=O)c3cccc(-c4ccc5nc(NC(=O)C6CC6)sc5n4)c3)cc2C(F)(F)F)CC1` gave ARFGAP1 inh 57, ASAP1 GAP inh 27, ASAP1 inh confirm 40 and ARFGAP1 inh conf 51.
`Cc1ccc(-c2ccc(/C=C3\SC(N4CCOCC4)=NC3=O)o2)cc1` gave MC4R antagonist inactive, CendR NRP1 mod inactive, ARFGAP1 inh 37, ASAP1 GAP inh 49, MC4R barr agon inactive, ASAP1 inh confirm 116 and ARFGAP1 inh conf 87.
`O=C1N=C(N2CCOCC2)SC1=Cc1ccco1` gave MC4R antagonist inactive, CendR NRP1 mod inactive, UUG fidelity inactive, ARFGAP1 inh inactive, ASAP1 GAP inh inactive and MC4R barr agon inactive.
`O=C1N=C(N2CCOCC2)S/C1=C/c1ccc(-c2ccc(F)cc2)o1` gave MC4R antagonist inactive, CendR NRP1 mod inactive, UUG fidelity inactive, ARFGAP1 inh 30, ASAP1 GAP inh 33, MC4R barr agon inactive, ASAP1 inh confirm 58 and ARFGAP1 inh conf 49.
Screening CNC[C@@H]1Oc2ncc(Br)cc2C(=O)N([C@@H](C)CO)C[C@H]1C returned UUG fidelity inactive.
Screening COc1ccc(/C=N\NC(=O)c2ccc([N+](=O)[O-])cc2)cc1COc1c(F)c(F)cc(F)c1F returned MC4R antagonist inactive, CendR NRP1 mod inactive, UUG fidelity inactive, ARFGAP1 inh 82, ASAP1 GAP inh 52, MC4R barr agon inactive, ASAP1 inh confirm 58 and ARFGAP1 inh conf 99.
Cc1ccc2cc3cc(C(=O)NCc4ccc5c(c4)OCO5)oc3nc2c1 was read as MC4R antagonist inactive, CendR NRP1 mod inactive, UUG fidelity inactive, ARFGAP1 inh 68, ASAP1 GAP inh 54, MC4R barr agon inactive, ASAP1 inh confirm 28 and ARFGAP1 inh conf 110.
Screening COc1ccccc1S(=O)(=O)N[C@@H]1C=C[C@H](CC(=O)NCc2cc(F)cc(F)c2)O[C@H]1CO returned UUG fidelity inactive.
`Nc1ccc(Nc2nc(-c3cc4ccccc4oc3=O)cs2)cc1` gave MC4R antagonist inactive, CendR NRP1 mod inactive, UUG fidelity inactive, ARFGAP1 inh inactive, ASAP1 GAP inh inactive and MC4R barr agon inactive.
For O=C(O)c1ccc(Nc2nc(-c3cc4ccccc4oc3=O)cs2)cc1O the results were MC4R antagonist inactive, CendR NRP1 mod inactive, ARFGAP1 inh 27, ASAP1 GAP inh 25, MC4R barr agon inactive, ASAP1 inh confirm 33 and ARFGAP1 inh conf 45.
O=C(/C=C/c1ccco1)Nc1ccc(-c2nc3ccccc3[nH]2)cc1 was read as MC4R antagonist inactive, CendR NRP1 mod inactive, UUG fidelity inactive, ARFGAP1 inh 88, ASAP1 GAP inh 28, MC4R barr agon inactive, ASAP1 inh confirm 71 and ARFGAP1 inh conf 139.
COc1ccc(NC(=O)N(C)C[C@@H]2Oc3ccc(NS(=O)(=O)c4ccc(F)cc4)cc3C(=O)N([C@H](C)CO)C[C@@H]2C)cc1 was read as UUG fidelity inactive.
Screening COc1cc2c3nnc(-c4ccc(F)cc4)c-3cn(Cc3ccccc3)c2cc1OC returned MC4R antagonist inactive, CendR NRP1 mod inactive, UUG fidelity inactive, ARFGAP1 inh 36, ASAP1 GAP inh 79, MC4R barr agon inactive, ASAP1 inh confirm 60 and ARFGAP1 inh conf 29.
Screening COc1cc2c3nnc(-c4ccc(F)cc4)c-3cn(Cc3ccc(F)cc3)c2cc1OC returned MC4R antagonist inactive, CendR NRP1 mod inactive, UUG fidelity inactive, ARFGAP1 inh inactive, ASAP1 GAP inh inactive and MC4R barr agon inactive.
Cc1ccc(S(=O)(=O)N(C)C[C@@H]2OCCCC[C@H](C)Oc3ccc(NC(=O)Nc4ccccc4)cc3C(=O)N([C@@H](C)CO)C[C@H]2C)cc1 was read as UUG fidelity inactive.
Nc1nc(SCc2ccc(Cl)cc2Cl)nc2nc3c(cc12)CCCC3 was read as MC4R antagonist inactive, CendR NRP1 mod inactive, ARFGAP1 inh 47, ASAP1 GAP inh 31, MC4R barr agon inactive, ASAP1 inh confirm 69 and ARFGAP1 inh conf 68.

Screening results: PubChem BioAssay, several laboratories
